Test system: Bcap37
Assay: Cytotoxicity against human Bcap37 cells after 72 hrs by MTT assay
Type: functional, cell-based

Q: With O=C(/C=C/c1ccc(Oc2ncnc3ccccc23)cc1)/C=C/c1cc([N+](=O)[O-])ccc1Cl as the compound, how does the Activity read?
A: Its Activity is “Dose-dependent effect”.
